In PubChem BioAssay (Tox21):
This is a selection; strong and weak results do not stand in their true shares. Records with an inconclusive call do not appear. The source made the active and inactive calls. Unless noted, calls follow the shape of the dose curve; as a rule, active = well fitted curve in the direction sought with a large enough effect in the repeat runs; inconclusive = weak or mixed curves; inactive = no such curve, though single readings can be large; an effect the other way counts as inactive or inconclusive.

Chains of the proteins cited; added tags and fusions are not shown.
UniProt Q14994, whole entry: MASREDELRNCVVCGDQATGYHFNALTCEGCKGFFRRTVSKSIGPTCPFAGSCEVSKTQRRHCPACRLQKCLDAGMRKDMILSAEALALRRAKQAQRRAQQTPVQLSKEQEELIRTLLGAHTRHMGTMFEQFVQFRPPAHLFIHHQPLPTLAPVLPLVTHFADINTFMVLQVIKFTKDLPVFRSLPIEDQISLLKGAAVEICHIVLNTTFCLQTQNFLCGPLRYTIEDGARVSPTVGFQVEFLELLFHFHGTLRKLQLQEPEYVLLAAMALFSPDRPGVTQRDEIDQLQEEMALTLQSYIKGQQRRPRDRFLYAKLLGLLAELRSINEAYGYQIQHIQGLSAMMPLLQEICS

Assays:
[1] = qHTS assay to identify small molecule antagonists of the peroxisome proliferator-activated receptor delta (PPARd) signaling pathway - cell viability counter screen (AID 743213); details: PPARd-bla HEK293H viability, CellTiter-Glo luminescence, 17 h; also: nearly all actives have a fitted effect of over 50% in size
Outline: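 PPARd-bla HEK293H cells were treated with compounds plus agonist L165041 (300 nM final) for 17 h at 37 C. Viability was then read in the same wells by CellTiter-Glo luminescence after 30 min at room temperature.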

[2] = qHTS assay to identify small molecule agonists of the farnesoid-X-receptor (FXR) signaling pathway - cell viability counter screen (AID 743218); details: FXR-bla HEK293T viability, CellTiter-Glo luminescence, 16 h; also: nearly all actives have a fitted effect of over 45% in size
Outline: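 After 16 h at 37 C with test compounds, FXR-bla HEK 293T cells were given LiveBLAzer B/G substrate for 2 h at RT and then CellTiter-Glo; luminescence was taken after 30 min.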

[3] = qHTS assay to identify small molecule antagonists of the farnesoid-X-receptor (FXR) signaling pathway - cell viability counter screen (AID 743221; active = well fitted cell-killing curve with a large enough effect in the repeat runs, not every such curve was filed as active; also: nearly all actives have a fitted effect of over 50% in size); details: FXR-bla HEK293T viability, CellTiter-Glo luminescence, 16 h
Outline: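 FXR-UAS-bla HEK 293T cells were treated with test compounds plus chenodeoxycholic acid (50 uM final) for 16 h at 37 C. Cell viability in the same wells was then read as CellTiter-Glo luminescence after 30 min at room temperature.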

[4] = qHTS assay to identify small molecule agonists of the vitamin D receptor (VDR) signaling pathway - cell viability counter screen (AID 743224); also: nearly all actives have a fitted effect of over 50% in size
Outline: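 Here cell health was gauged by luminescent ATP detection (CellTiter-Glo, 30 min RT) in VDR-bla cells that had been incubated with test compounds for 16 h at 37C and 5% CO2.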

[5] = qHTS assay to identify small molecule antagonists of the vitamin D receptor (VDR) signaling pathway - cell viability counter screen (AID 743225); details: VDR-bla HEK293T viability, CellTiter-Glo luminescence, 16 h; also: nearly all actives have a fitted effect of over 50% in size
Outline: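 VDR-bla HEK 293T cells, 4 h pre-incubation at 37C, then compound plus 1-alpha,25-dihydroxyvitamin D3 (3 nM final) for 16 h. After the beta-lactamase FRET read, CellTiter-Glo was added to the same wells; luminescence after 30 min at room temperature.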

[6] = qHTS assay to identify small molecule agonists of the NFkB signaling pathway - cell viability counter screen (AID 1159515; calls by dose curve; also: nearly all actives have a fitted effect of over 55% in size); details: NFkB-bla ME-180 viability, CellTiter-Glo luminescence, 5 h
Outline: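 5 hr compound treatment of NFkB-bla ME-180 cells (2,000/well, seeded overnight beforehand), followed by reporter substrate for 1.5 hr. CellTiter-Glo added afterward; luminescence after 30 min RT.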

[7] = qHTS assay to identify small molecule antagonists of the retinoid-related orphan receptor gamma (ROR-gamma) signaling pathway - cell viability counter screen (AID 1159520); details: Tet-on RORgamma CHO cells viability, ATP luminescence, 16 h; also: nearly all actives have a fitted effect of over 50% in size
Outline: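 Tet-on ROR gamma CHO cells (1,000/well) were plated 4 hr, given compounds in DMSO for 2 hr at 37 C, then induced with 1 uM final doxycycline for 16 hr. Viability was read as ATP by CellTiter-Glo luminescence after 30 min.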

[8] = target: Nuclear receptor ROR-gamma (Homo sapiens) (UniProt P51449); assay: qHTS assay to identify small molecule antagonists of the retinoid-related orphan receptor gamma (ROR-gamma) signaling pathway (AID 1159521; also: nearly all actives have a fitted effect of over 50% in size); details: Tet-on RORgamma CHO cells, RORE-luciferase, 16 h
[9] = qHTS assay to identify small molecule agonists of the AP-1 signaling pathway - cell viability counter screen (AID 1159525; calls by dose curve; also: nearly all actives have a fitted effect of over 55% in size); details: ME-180 AP-1-bla cells viability, ATP luminescence, 5 h
Outline: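 ME-180 AP-1-bla, 2500 cells/well, Opti-MEM + 0.5% dialyzed FBS; overnight 37 °C; cpd 15-pt titration, 5 h 37 °C; CellTiter-Glo 30 min RT; luminescence read; normalised to TOAB and DMSO controls.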

[10] = qHTS assay to identify small molecule agonists of the RXR signaling pathway - cell viability counter screen (AID 1159529); details: RXR-alpha-bla HEK293T viability, CellTiter-Glo, 16 h; also: nearly all actives have a fitted effect of over 50% in size
Outline: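 RXR-alpha-UAS-bla HEK 293T cells in medium with 2% charcoal-stripped FBS were preincubated 5 hr, then exposed to compounds for 16 hr at 37 C. Viability was read as CellTiter-Glo luminescence after 30 min at room temperature.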

[11] = qHTS assay to identify small molecule antagonists of the retinoic acid receptor (RAR) signaling pathway (AID 1159552; also: nearly all actives have a fitted effect of over 50% in size); details: C3RL4 RARE luciferase reporter, retinol-stimulated, 6 h
Outline: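 RARE-luc C3RL4 cells; cpds + 1 uM (final) retinol, 6 hr, 37 C/5% CO2; luciferase reagent, 30 min RT, luminescence readout. Inhibitors of retinol-driven signal scored.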

[12] = qHTS assay to identify small molecule antagonists of the estrogen related receptor (ERR) signaling pathway from Tox21 library - cell viability counter screen (AID 1224834); also: nearly all actives have a fitted effect of over 30% in size
Outline: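 CellTiter-Fluor fluorescence measured; ERR cells; 17.5 h compound incubation at 37 C; 30 min reagent step.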

[13] = qHTS assay to identify small molecule agonists of the constitutive androstane receptor (CAR) signaling pathway - cell viability counter screen (AID 1224836); also: nearly all actives have a fitted effect of over 45% in size
Outline: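 HepG2 cells stably carrying hCAR and a CYP2B6-2.2kb reporter were plated 4 h, then given compounds at 15 concentrations plus PK11195 (final 0.75 uM). After 23 h at 37 C, viability was read by CellTiter-Fluor fluorescence.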

[14] = qHTS assay to identify small molecule antagonists of the constitutive androstane receptor (CAR) signaling pathway - cell viability counter screen (AID 1224837); also: nearly all actives have a fitted effect of over 45% in size
Outline: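 Using CellTiter-Fluor, viability is scored in HepG2 cells stably carrying hCAR and a 2.2kb CYP2B6 reporter after 23 hr compound exposure across 15 concentrations, with CITCO present at 50 nM.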

[15] = target: Nuclear receptor subfamily 1 group I member 3 (Homo sapiens) (UniProt Q14994); assay: qHTS assay to identify small molecule antagonists of the constitutive androstane receptor (CAR) signaling pathway (AID 1224838); details: HepG2-CYP2B6-hCAR luciferase, CITCO-stimulated, 24 h;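 also: HepG2 cells stably expressing hCAR with CYP2B6 luciferase reporter stimulated by CITCO; nearly all actives have a fitted effect of over 40% in size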
[16] = qHTS assay to identify small molecule antagonists of the estrogen related receptor signaling pathway with the pleiotropic PPARgamma coactivator (PGC) from Tox21 10K library - cell viability counter screen (AID 1224840; active = well fitted cell-killing curve with a large enough effect in the repeat runs, not every such curve was filed as active; also: nearly all actives have a fitted effect of over 40% in size)
Outline: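 Here the PGC/ERR cells serve as a cytotoxicity control: they are exposed to compounds for 17.5 hours at 37 C, and live-cell signal is quantified using CellTiter-Fluor fluorescence.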

Measured: Potency
Potency is read from the fitted curve at half-maximal effect.

N#CSc1ccc([N+](=O)[O-])cc1[N+](=O)[O-]
active: [1] 24.5 µM | [2] 19.5 µM | [3] 15.5 µM | [4] 17.4 µM | [5] 21.9 µM | [6] 24.5 µM | [7] 15.4 µM | [8] 13.7 µM | [9] 17.4 µM | [10] 13.8 µM | [11] 24.3 µM | [12] 30.6 µM | [13] 24.3 µM | [14] 17.2 µM | [15] 13.7 µM | [16] 24.3 µM
